T1: human GALR1 (human, UniProt P47211 1-349)
T1 chain: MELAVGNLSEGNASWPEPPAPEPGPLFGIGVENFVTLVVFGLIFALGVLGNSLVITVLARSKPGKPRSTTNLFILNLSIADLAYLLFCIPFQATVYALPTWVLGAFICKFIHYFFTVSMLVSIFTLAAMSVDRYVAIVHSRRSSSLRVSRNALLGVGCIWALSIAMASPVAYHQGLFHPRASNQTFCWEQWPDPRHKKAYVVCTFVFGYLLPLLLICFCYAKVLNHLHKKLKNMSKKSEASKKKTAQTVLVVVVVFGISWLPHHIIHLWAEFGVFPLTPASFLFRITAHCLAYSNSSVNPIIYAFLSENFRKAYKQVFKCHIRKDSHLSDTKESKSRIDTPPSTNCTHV

By UniProt entry, the sequences of proteins in these tests, tags left out. Where a name states a change or a piece, a line headed by the entry shows the natural chain unless it says otherwise.
UniProt P10683: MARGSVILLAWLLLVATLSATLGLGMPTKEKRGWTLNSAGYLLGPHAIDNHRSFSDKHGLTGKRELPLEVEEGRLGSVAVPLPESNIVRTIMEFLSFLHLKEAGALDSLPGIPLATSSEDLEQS


Molecular target: T1, human GALR1
Assay: competition

IC50 | Binder
17 nM | WTLNSAGYLLGPHAIDNHRSFSDKHGLT (peptide, UniProt P10683 34-61, looked up, range 2-29; also called rGAL(2-29)) [rat Gal (2-29)]
> 1000 nM | TLNSAGYLLGPHAIDNHRSFSDKHGLT [rat Gal (3-29)]
0.1 nM | GWTLNSAGYLLGPHAIDNHRSFSDKHGLT [rat galanin]

— patent publication US6337206B1 (priority 1997, dated 2002)
